For experiment [1], the target named is HSPG2 (perlecan) on cells (human, UniProt P98160 22-4391). Briefly: flow cytometry titration on MDA-MB-231-LM2 cells. Here is the method:
Non-linear regression analysis was performed using the geometric MFIs from antibody binding titrations, using GraphPad Prism software. […] This procedure was used for all cell lines tested for Tw1S4_6 or Tw1S4_AM6 binding.
The parent TwiS4_6 antibody and the optimized Tw1S4_AM6 antibody have identical heavy chains, and therefore CDR 1, 2 and 3 on the heavy chains are identical. The light chains of the parent TwiS4_6 antibody and the optimized Tw1S4_AM6 antibody differ only in CDR 3. Light chain CDR 3 of TwiS4_6 is […] (SEQ ID NO: 16), whereas Light chain CDR 3 of Tw1S4_AM6 is […] (SEQ ID NO: 7).
In general terms: A flow cytometer gives signals particle by particle.

For experiment [2], the target named is T1, Recombinant HSPG2 domain 1 (first 247 amino acids of human HSPG2, C-terminal His tag) (human, UniProt P98160 22-247).
T1 construct: range 1-247; The stated range counts from residue 1, so it includes the signal peptide; also called HSPG2D1; perlecan domain 1; not shown: C-terminal His tag from the pcDNA 3.3+ vector
Briefly: biolayer interferometry (BLItz), His-tagged HSPG2D1 on Ni-NTA biosensor. Here is the method: (§1) We used biolayer inferometry (BLItz, Fortebio) to determine antibody binding kinetics specifically with purified HSPG2 domain 1. Ni-NTA biosensors were hydrated for 10 minutes in phosphate buffered saline. Following hydration, a 30 second baseline was established, followed by a 10-minute loading of the biosensor with 10 μg/mL HSPG2 domain 1 protein. The biosensor was then placed in PBS to establish baseline for 30 seconds. A two-step antibody association—dissociation cycle of 5 minutes each was then used to determine the kinetic association (kₐ) and dissociation (kd) rate constants. The equilibrium dissociation constant (KD) was calculated as KD=kd/kₐ
(§2) An important caveat with flow cytometry-based titration curves is the potential for avidity affects contributing to the binding, resulting in an ‘apparent KD’. Biophysical techniques are most often employed to generate the true, analytically relevant ‘intrinsic KD^{’} value. We chose biolayer interferometry as a means of assessing the kinetics of antibody-antigen binding with HSPG2D1.
On the technique in general: BLI is a label-free optical method that tracks binding on a fibre tip over time.

The target in experiment [3] is T1, Recombinant HSPG2 domain 1 (first 247 …). Briefly: biolayer interferometry (BLItz), HSPG2 domain 1 on Ni-NTA biosensor. Here is the method:
as §1, §2

B1: Tw1S4_AM6 IgG (antibody, V domains shown)
VH: EVQLLESGGGLVQPGGSLRLSCAASGFTFSSYAMSWVRQAPGKGLEWVSAIREDGIKTYYADSVKGRFTISRDNSKNTLYLQMNSLRAEDTAVYYCAKRARRFDYWGQGTLVTVSS
VL: DIQMTQSPSSLSASVGDRVTITCRASQSISSYLNWYQQKPGKAPKLLIYNASLLQSGVPSRFSGSGSGTDFTLTISSLQPEDFATYYCQQTRNHRTHFGQGTKVEIKR
One may read the Kd as the constant that tells how readily two partners part at equilibrium. As a reminder, the koff is the rate constant with which the complex falls apart. The kon is the rate constant with which the complex forms. Consider B1, for which the “fold improvement in binding affinity compared to the parent antibody Tw1S4_6” value in experiment [1] is over 10 fold. The Kd in experiment [2] was determined as 80 nM. Also, in experiment [3], the Kd was found to be 79.3 nM, the koff was found to be 0.00225 s⁻¹ and the kon worked out at 28400 M⁻¹ s⁻¹.

Source of the values: patent US20200332020A1 (REGENTS OF THE UNIVERSITY OF MINNESOTA, published 2020).
